These are literature values, as cited in article PMC11019746, “Illuminating Neuropeptide Y Y4 Receptor Binding: Fluorescent Cyclic Peptides with Subnanomolar Binding Affinity as Novel Molecular Tools” (ACS Pharmacology & Translational Science, 2024).

Amino acid sequences for entries named in this document (tags omitted). A change or cut given only in a name is not applied to a line headed by its entry.
UniProt Q15761: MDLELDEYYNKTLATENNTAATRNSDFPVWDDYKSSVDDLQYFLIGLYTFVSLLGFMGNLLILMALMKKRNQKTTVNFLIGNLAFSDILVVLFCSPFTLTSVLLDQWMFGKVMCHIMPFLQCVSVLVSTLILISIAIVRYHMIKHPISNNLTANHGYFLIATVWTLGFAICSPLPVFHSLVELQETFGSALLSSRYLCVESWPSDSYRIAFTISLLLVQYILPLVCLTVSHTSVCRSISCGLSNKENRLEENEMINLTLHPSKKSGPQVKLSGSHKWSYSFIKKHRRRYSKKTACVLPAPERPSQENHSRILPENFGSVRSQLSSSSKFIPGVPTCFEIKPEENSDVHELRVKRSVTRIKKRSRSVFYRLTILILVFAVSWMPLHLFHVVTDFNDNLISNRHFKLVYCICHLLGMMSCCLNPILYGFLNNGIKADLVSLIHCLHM

Settings in all cases: cited from earlier work
The target in data set [1] is Sulfo-Cy5-[K4,Nle17,30]hPP (1) (Homo sapiens) (UniProt P01298).
In data set [2] the target is Y4 receptor (Homo sapiens) (UniProt P50391).
Data set [3] deals with [3H]propionyl-pNPY (Sus scrofa) (UniProt P01304). In words: radioligand binding.

The term Kd denotes the concentration at which binding is half-saturated. Regarding Y4 receptor (from UniProt P50391), the Kd in data set [1] was 11 nM.
In the case of “Sulfo-Cy5-[K4,Nle17,30]hPP (1) (from UniProt P01298)”, the Kd in data set [2] is 11 nM.
Y5 receptor (from UniProt Q15761): the Kd in data set [3] was 11 nM.
